Data as given in patent US6277886A (priority 1996, dated 2001).

Key:
[1] = tested on: MAO-A/MAO-B; conditions: cited from earlier work
[2] = tested on: ICR male mice; assay: Hypobaric hypoxia model, survival time of mice at 200 mmHg; format: in vivo; conditions: one hour prior to hypoxia, control = 100
Text: The model used is analogous to the one described by M. Nakanishi et al., Life Sci. 13: 467-476 (1973); and by Y'Oshiro et al., J. Med. Chem. 34: 2014-2023 (1991). A group of 4 ICR male mice each weighing 20-25 g were placed in a 2.5 L glass chamber (A) at atmospheric pressure. Chamber A is connected to a 12 L chamber (B) through a valve which is initially […] closed. The air in chamber B was evacuated to a pressure of 100 mmHg. The valve between the two chambers was opened rapidly, whereupon the pressure in chamber A fell within 14 seconds to 200 mmHg. The survival time of the mice in chamber A was determined to a maximum hypobaric exposure of 15 minutes. Effect of drug pretreatment on survival is calculated as the percent of the survivai time of the drug-treated group as compared to saline-injected or vehicle-injected group. Control groups were tested twice, before and after each experiment and consisted of 12 to 16 mice, 4 per group. Each tested group always consisted of 4 mice in order to ensure a constant residual volume of oxygen in all tests. […] The effect of each dose of the test drug was determined in duplicate, using a total of 8 mice, 4 per group. All drugs were administered i.p. one hour prior to hypoxia. Positive reference drugs were sodium pentobarbital at a dose of 40 mg/kg, or diazepam at a dose of 10 mg.kg, given 0.5 hour prior to hypoxia.

[3] = tested on: axotomized immature rat facial mononeurons; conditions: cited from earlier work

| Structure (SMILES) | safety factor suggested by in vitro MAO-A/MAO-B ratio ([1]; about 100 or more) | safety factor in experimental systems in vitro ([1]; in vitro) | % protection ± SD relative to control (relative survival time) ([2]; 10 mg/kg i.p.) | % protection ± SD relative to control (relative survival time) ([2]; 50 mg/kg i.p.) | % protection ± SD relative to control (relative survival time) ([2]; 100 mg/kg i.p.) | activity in increasing the survival of axotomized immature rat facial mononeurons, relative to R(-) enantiomer of deprenyl [3] |
| --- | --- | --- | --- | --- | --- | --- |
| C#CCN(C)[C@H](C)Cc1ccccc1 [R(-)Deprenyl] | ≥ 100 | about 400 | 97 ± 70% | 79 ± 23% | 102 ± 75% | – |
| C#CCN(C)[C@@H](C)Cc1ccccc1 [S(+) deprenyl] | – | – | – | – | – | 2000 times less active |
